From ChEMBL document CHEMBL1147462, “Exploring QSAR of melatonin receptor ligand benzofuran derivatives using E-state index” (Bioorg Med Chem Lett, 2004)

Molecular target: T1, Melatonin receptor type 1B (Homo sapiens) (UniProt P49286)
T1 sequence (whole entry): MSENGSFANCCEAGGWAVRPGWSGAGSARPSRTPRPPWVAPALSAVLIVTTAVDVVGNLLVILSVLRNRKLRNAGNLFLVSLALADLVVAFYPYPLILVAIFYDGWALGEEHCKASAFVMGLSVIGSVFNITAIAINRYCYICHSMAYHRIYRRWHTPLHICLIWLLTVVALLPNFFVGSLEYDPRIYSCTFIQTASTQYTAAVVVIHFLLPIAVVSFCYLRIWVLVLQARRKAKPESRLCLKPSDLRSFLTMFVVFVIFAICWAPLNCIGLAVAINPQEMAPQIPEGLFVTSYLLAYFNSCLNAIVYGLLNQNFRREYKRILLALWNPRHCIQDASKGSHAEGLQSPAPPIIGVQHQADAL
Assay: Binding affinity against melatonin receptor type 1B

- pC1: 4.3
Structure (SMILES): COc1ccc2oc(Cc3ccccc3)c(CCNC(C)=O)c2c1
